Only some compounds are listed: those with a hit (about 0.43% of all), similar ones and a draw of the others.
HCMV UL50-53 inh: cytomegalovirus nuclear egress complex inhibition; HTRF UL50-UL53 interaction, normalized percent inhibition; inhibition, % (concentration not given with the values); 190,000 tested, 0.15% active; in the data active = inhibition above about 27%, passing the limit was not always enough
GIV Gai3 FP: inhibitors of GIV GBA-motif binding to rat Galpha-i3. actives 0.42% (n = 210,000). Galpha-i3/FITC-GIV peptide fluorescence polarization, 90 min; active compounds read low; scaled: aluminum fluoride 0%, vehicle 100%. AID 1224905. percent of control (FP), % (no concentration beside the values). P08753;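 active means replicate mean at 85% of control or lower, very high polarization wells dropped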;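 further: wells of about 15 µL received 100 nL stock; the first replicate is given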
A number is an active result; - = inactive; . = no result given; ! = not confirmed by another sample.

SMILES | HCMV UL50-53 inh | GIV Gai3 FP
CCCN1C(=O)/C(=C/c2c(N3CCCC3)nc3ccccn3c2=O)SC1=S | - | -60
CCN1C(=O)/C(=C/c2c(N3CCCCC3)nc3ccccn3c2=O)SC1=S | - | -75
CC1CCN(c2nc3ccccn3c(=O)c2/C=C2/SC(=S)N(C3CCCCC3)C2=O)CC1 | . | -
COCCCN1C(=O)/C(=C/c2c(N3CCN(C)CC3)nc3c(C)cccn3c2=O)SC1=S | - | 62
CN1CCN(c2nc3ccccn3c(=O)c2/C=C2\SC(=S)N(Cc3ccco3)C2=O)CC1 | - | -
CCCCN1C(=O)/C(=C/c2c(N3CCN(CCO)CC3)nc3ccccn3c2=O)SC1=S | . | -
C=CCN1C(=O)/C(=C/c2c(N3CCCCC3)nc3ccccn3c2=O)SC1=S | . | -36
Cc1cccn2c(=O)c(/C=C3\SC(=S)N(CCc4ccccc4)C3=O)c(N3CCCC3)nc12 | - | -
O=C(Oc1ccccc1OC(=O)C1C2CCCCC21)C1C2CCCCC21 (configuration not stated) | - | .
CCOC(=O)c1ccc(NC(=O)c2ccccc2OC(C)=O)cc1 | - | .
COc1cccc(C(=O)Nc2c3c(nc4ccccc24)CCCC3)c1 | . | -
C=CCN1C(=O)/C(=C/c2c(Sc3ccccc3)nc3ccccn3c2=O)SC1=S | . | -36
C=CCN1C(=O)/C(=C\c2cccs2)SC1=S | - | .
Cc1ccc(Cn2c(SCc3cccc(C)c3)nc3cccnc32)cc1 | 22 | -
Cc1cccc(CSc2nc3cccnc3n2Cc2ccccc2F)c1 | - | -
COc1ccc2[nH]c(C(=O)N3CCCN(Cc4ccccc4)CC3)cc2c1 | - | -
Cn1cccc1/C=C1\CC/C(=C\c2cccn2C)C1=O | . | -75
Cn1cccc1/C=C1\CCc2ccccc2C1=O | . | -
COc1cc(OC)c(OC)cc1/C=C1/SC(=S)N(CC(=O)O)C1=O | - | -
COCCN1C(=O)/C(=C/c2cc(OC)c(O)cc2Br)SC1=S | - | -61
COC(=O)CSc1nc2ccccc2nc1Cc1cccc([N+](=O)[O-])c1 | . | -
O=C(Nc1ccc2nc3c(=O)[nH]c(=O)[nH]c3nc2c1)C(F)(F)F | . | -16
Cc1ccc2nc3[nH]c(=O)[nH]c(=O)c3nc2c1 | . | -
CCOC(=O)c1ccc(NC(=O)CSc2nnc(NC(=O)c3cccc([N+](=O)[O-])c3)s2)cc1 | . | -
O=C(CSc1nc2ccccc2c(=O)n1CC1CCC(C(=O)NCC2CCCO2)CC1)NCCC1=CCCCC1 (configuration not stated) | . | -
SMILES | HCMV UL50-53 inh | GIV Gai3 FP
COc1cc2c(cc1OC)NC(=O)C2 | 64 | -
COc1cc2c(cc1OC)C(c1ccccc1)CC(=O)N2 (configuration not stated) | - | -
CCOC(=O)C1=C(O)/C(=C/c2cccs2)SC1=Nc1ccccc1 | . | -
FC(F)(F)c1nnc2n1N=C(c1cc3ccccc3o1)CS2 | - | .
CN(C)N1C(=O)/C(=C/c2cccs2)SC1=Nc1ccccc1 | - | 85
COc1ccc2ccccc2c1/C=C1\SC(=Nc2ccccc2)N(N(C)C)C1=O | . | -
Cc1ccc(C(=O)NC2(O)C(=O)c3ccccc3C2=O)cn1 | 54 | -
Cc1ccc(C(=O)N/N=C/c2c[nH]c3ccccc23)cn1 | - | -
CC(COc1ccccc1)N(CCCl)Cc1ccccc1 (configuration not stated) | 89! | -
CC(C)NCC(O)COc1ccccc1 (configuration not stated) | - | -
COc1ccc(/C=C/C(=O)Nc2nccs2)cc1OC | - | .
CCOc1cc(C=C2C(=O)N(C)C(=O)N(C)C2=O)ccc1OCCOCCOc1ccc(C)cc1 | - | -
CCOc1cc(C=C2C(=O)N(C)C(=O)N(C)C2=O)ccc1OCCOc1ccc([N+](=O)[O-])cc1 | 55 | -
O/N=C1\CCCc2c1nc(-c1ccccc1Cl)n2O | - | .
O/N=C1/CCCc2nn(-c3ccccc3)nc21 | 56 | .
O=C1CCCN2N=C(SCc3ccccc3F)SC2=N1 | . | -
O=C1C2C3C=CC(CO)(O3)C2C(=O)N1c1cccc2ccccc12 (configuration not stated) | - | -
CC1=CC(=C2C(=O)NC(=S)NC2=O)C=C(C)N1CCc1ccccc1 | - | -
CC1=CC(=C2C(=O)NC(=O)NC2=O)C=C(C)N1c1ccccc1 | - | -4.9
COc1cc(NC(=O)c2cc([N+](=O)[O-])ccc2N2CCCCC2)c2ncccc2c1 | . | -
CC(C)CNC(=O)C1CCN(c2cc(-c3ccc(F)cc3)ncn2)CC1 | - | -
COc1cccc(Cn2ccn(Cc3ccccc3)c(=O)c2=O)c1 | - | -
CCCC(=O)Nc1cccn(Cc2cccc(OC)c2)c1=O | 50 | -
CCN(CC)c1ccc2cc(-c3nnc(-c4cccc(Cl)c4)o3)c(=O)oc2c1 | - | 7.6
CCN(CC)c1ccc2cc(-c3nc(-c4ccccc4F)no3)c(=O)oc2c1 | . | -
SMILES | HCMV UL50-53 inh | GIV Gai3 FP
CCN(CC)c1ccc2cc(-c3csc(C)n3)c(=O)oc2c1 | - | .
CCN(CC)c1ccc2cc(-c3nc(-c4ccccc4)cs3)c(=O)oc2c1 | . | -32!
COc1cc(-c2noc(-c3cc4cccc(C)c4oc3=O)n2)cc(OC)c1OC | . | -
CCN(CC)c1ccc2cc(-c3nc(-c4cc(OC)c(OC)c(OC)c4)no3)c(=O)oc2c1 | . | -21
CCN(CC)c1ccc2cc(-c3csnn3)c(=O)oc2c1 | - | -
CCN(CC)c1ccc2cc(-c3nc(-c4cccs4)no3)c(=O)oc2c1 | . | -21
Cc1ccc(NC(=O)c2cnc3sccn3c2=O)cc1 | - | .
O=C(c1cc(S(=O)(=O)N2CCCC2)ccc1Cl)N1CCN(c2ccccc2F)CC1 | . | -
CC(C)n1cnc2nc(CSc3ccc(NC(=O)c4ccc(Br)cc4)cc3)cc(=O)n21 | - | -
COC(=O)c1sccc1S(=O)(=O)N1CCCC1 | - | -
CC(C)C1C(C#N)=C(N)SC(N)=C1C#N | - | -
N#CC1=C(N)SC(N)=C(C#N)C1c1cccc2ccccc12 | - | -36
Cc1ccc(C2C(C#N)=C(N)SC(N)=C2C#N)c(C)c1 | - | 8.5
N#CC1=C(N)SC(N)=C(C#N)C1c1ccccc1F | - | .
CCNc1cc(Nc2ccc(OC)cc2)c([N+](=O)[O-])c2nonc12 | - | -
CCN1/C(=C\C=C2/C(=O)NC(=O)N(C)C2=O)Sc2ccccc21 | - | -61
CCN1/C(=C\C=C2\C(=O)N(C)C(=S)N2C)Sc2ccccc21 | . | -
O=C(c1cc2c(=O)[nH]c3ccccc3c2s1)N1CCN(c2ccc(F)cc2)CC1 | - | -
O=C(c1cc2c(=O)[nH]c3ccccc3c2s1)N1CCCC1 | . | 58
O=S(=O)(c1ccc(Oc2ccc3ccccc3c2)nc1)N1CCOCC1 | - | .
C/C(=N\NC(=O)c1nc(Cl)c(Cl)c(N)c1Cl)c1cc(O)ccc1O | - | .
Cc1csc(-c2cc(S(=O)(=O)N3CCCc4ccccc43)c(C)s2)n1 | . | -
Cc1ccc(C2=CC(c3c(F)cccc3Cl)n3nc(NS(C)(=O)=O)nc3N2)cc1 (configuration not stated) | - | -
CCCCCCCCN1/C(=C/C=C/c2n(CCCCCCCC)c3cc(Cl)c(Cl)cc3[n+]2CCCCC)N(CCCCC)c2cc(Cl)c(Cl)cc21 | . | -
C=CCN1/C(=C\C=C\c2n(CC=C)c3cc(Cl)c(Cl)cc3[n+]2CCCCCCCC)N(CCCCCCCC)c2cc(Cl)c(Cl)cc21 | . | -62
Cc1cc(C)cc(N2C(=O)N(CC(=O)N3CCOc4ccc(C)cc43)C3CS(=O)(=O)CC32)c1 (configuration not stated) | - | -

Bioassay records from PubChem.
